One assay addresses T1, human glucagon receptor (Homo sapiens, UniProt P47871).
T1 construct: expressed in transfected cells; host or cells: HEK-293
Description: cAMP response (HTRF) of HEK-293 cells stably expressing human glucagon receptor. To be noted: read-out: EC50 hGlucagon-R. It is filed as cell-based. In general terms: TR-FRET usually uses a lanthanide donor and a delayed reading to cut background.

Sequences of proteins named here, by UniProt entry; tags and fusion partners are left off. Residues count along the entry.
UniProt P47871, 26-477: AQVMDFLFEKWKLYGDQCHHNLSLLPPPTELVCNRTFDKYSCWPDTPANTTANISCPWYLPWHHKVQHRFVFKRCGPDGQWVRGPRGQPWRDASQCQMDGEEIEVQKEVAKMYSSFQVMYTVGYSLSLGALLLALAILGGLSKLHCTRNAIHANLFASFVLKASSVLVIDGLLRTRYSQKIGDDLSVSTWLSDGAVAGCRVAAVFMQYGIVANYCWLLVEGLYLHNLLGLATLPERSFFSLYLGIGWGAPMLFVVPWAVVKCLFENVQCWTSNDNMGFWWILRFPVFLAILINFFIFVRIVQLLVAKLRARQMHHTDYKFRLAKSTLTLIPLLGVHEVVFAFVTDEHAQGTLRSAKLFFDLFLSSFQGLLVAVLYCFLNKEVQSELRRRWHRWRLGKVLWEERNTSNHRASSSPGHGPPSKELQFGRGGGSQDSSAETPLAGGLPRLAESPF
UniProt P43220, 24-463: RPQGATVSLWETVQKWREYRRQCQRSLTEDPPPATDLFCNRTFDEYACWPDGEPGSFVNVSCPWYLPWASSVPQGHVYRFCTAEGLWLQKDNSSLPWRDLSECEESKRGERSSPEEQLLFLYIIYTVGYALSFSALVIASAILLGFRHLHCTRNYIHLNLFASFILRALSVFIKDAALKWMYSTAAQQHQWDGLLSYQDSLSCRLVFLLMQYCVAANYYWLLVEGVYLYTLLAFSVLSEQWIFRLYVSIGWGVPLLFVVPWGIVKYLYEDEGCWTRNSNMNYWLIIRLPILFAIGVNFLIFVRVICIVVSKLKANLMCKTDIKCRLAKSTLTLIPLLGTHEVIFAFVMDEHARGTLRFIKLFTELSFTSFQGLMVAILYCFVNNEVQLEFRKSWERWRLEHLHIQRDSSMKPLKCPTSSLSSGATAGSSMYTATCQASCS

For a further assay, the target named is T2, human GLP-1 receptor (Homo sapiens, UniProt P43220).
T2 construct: expressed in transfected cells; host or cells: HEK-293
The experiment in a line: cAMP response (HTRF) of HEK-293 cells stably expressing human GLP-1 receptor. It is filed as cell-based. As to conditions: read-out: EC50 hGLP-1R.

The mark [1] stands for this setting: Table 8, comparison testing of position 14.

Each structure is given as a SMILES string. Where two headings read alike, the source gives them in different places.

The EC50 is the midpoint of the concentration-response curve.

For `CCCCCCCCCCCCCCCC(=O)N[C@@H](CCC(=O)NCCCC[C@H](NC(=O)[C@H](CCC(N)=O)NC(=O)[C@H](CCCCN)NC(=O)[C@H](CO)NC(=O)[C@H](CC(C)C)NC(=O)[C@H](CC(=O)O)NC(=O)[C@H](CO)NC(=O)[C@@H](NC(=O)[C@H](Cc1ccccc1)NC(=O)[C@@H](NC(=O)CNC(=O)[C@H](CCC(N)=O)NC(=O)[C@@H](CO)NC(=O)[C@@H](N)Cc1c[nH]cn1)[C@@H](C)O)[C@@H](C)O)C(=O)N[C@@H](CCC(=O)O)C(=O)N[C@@H](CCC(=O)O)C(=O)N[C@@H](CCC(=O)O)C(=O)N[C@@H](C)C(=O)N[C@@H](C)C(=O)N[C@@H](CCCCN)C(=O)N[C@@H](CC(=O)O)C(=O)N[C@@H](Cc1ccccc1)C(=O)N[C@H](C(=O)N[C@@H](CCC(=O)O)C(=O)N[C@@H](Cc1c[nH]c2ccccc12)C(=O)N[C@@H](CC(C)C)C(=O)N[C@@H](CCCCN)C(=O)N[C@@H](C)C(=O)NCC(=O)NCC(=O)N1CCC[C@H]1C(=O)N[C@@H](CO)C(=O)N[C@@H](CO)C(=O)NCC(=O)N[C@@H](C)C(=O)N1CCC[C@H]1C(=O)N1CCC[C@H]1C(=O)N1CCC[C@H]1C(=O)N[C@@H](CO)C(N)=O)[C@@H](C)CC)C(=O)O` [compound 17], the EC50 at human glucagon receptor (Table 5, cAMP, HEK-293) turned out to be 93.1 pM; at human GLP-1 receptor (Table 5, cAMP, HEK-293) it was 1.7 pM.

Take `CCCCCCCCCCCCCCCCCC(=O)N[C@@H](CCC(=O)NCCCC[C@H](NC(=O)[C@H](CCC(N)=O)NC(=O)[C@H](CCCCN)NC(=O)[C@H](CO)NC(=O)[C@H](CC(C)C)NC(=O)[C@H](CC(=O)O)NC(=O)[C@H](CO)NC(=O)[C@@H](NC(=O)[C@H](Cc1ccccc1)NC(=O)[C@@H](NC(=O)CNC(=O)[C@H](CCC(N)=O)NC(=O)C(C)(C)NC(=O)[C@@H](N)Cc1c[nH]cn1)[C@@H](C)O)[C@@H](C)O)C(=O)N[C@@H](CC(=O)O)C(=O)N[C@@H](CCC(=O)O)C(=O)N[C@@H](CCC(=O)O)C(=O)N[C@@H](C)C(=O)N[C@@H](C)C(=O)N[C@@H](CCCNC(=N)N)C(=O)N[C@@H](CC(C)C)C(=O)N[C@@H](Cc1ccccc1)C(=O)N[C@H](C(=O)N[C@@H](CCC(=O)O)C(=O)N[C@@H](Cc1c[nH]c2ccccc12)C(=O)N[C@@H](CC(C)C)C(=O)N[C@@H](CCCCN)C(=O)N[C@@H](C)C(=O)NCC(=O)NCC(=O)N1CCC[C@H]1C(=O)N[C@@H](CO)C(=O)N[C@@H](CO)C(=O)NCC(=O)N[C@@H](C)C(=O)N1CCC[C@H]1C(=O)N1CCC[C@H]1C(=O)N1CCC[C@H]1C(=O)N[C@@H](CO)C(N)=O)[C@@H](C)CC)C(=O)O` [compound 216]: the EC50 is 19.5 pM at human glucagon receptor (Table 5, cAMP, HEK-293) and 4.7 pM on human GLP-1 receptor (Table 5, cAMP, HEK-293).

Consider `CCCCCCCCCCCCCCCC(=O)N[C@@H](CCC(=O)NCCCC[C@H](NC(=O)[C@H](CCC(N)=O)NC(=O)[C@H](CCCCN)NC(=O)[C@H](CO)NC(=O)[C@H](CC(C)C)NC(=O)[C@H](CC(=O)O)NC(=O)[C@H](CO)NC(=O)[C@@H](NC(=O)[C@H](Cc1ccccc1)NC(=O)[C@@H](NC(=O)CNC(=O)[C@H](CCC(N)=O)NC(=O)[C@@H](CO)NC(=O)[C@@H](N)Cc1c[nH]cn1)[C@@H](C)O)[C@@H](C)O)C(=O)N[C@@H](CCC(=O)O)C(=O)N[C@@H](CO)C(=O)NC(C)(C)C(=O)N[C@@H](C)C(=O)N[C@@H](C)C(=O)NC(C)(C)C(=O)N[C@@H](CC(C)C)C(=O)N[C@@H](Cc1ccccc1)C(=O)N[C@H](C(=O)N[C@@H](CCC(=O)O)C(=O)N[C@@H](Cc1c[nH]c2ccccc12)C(=O)N[C@@H](CC(C)C)C(=O)N[C@@H](CCCCN)C(=O)N[C@@H](C)C(=O)NCC(=O)NCC(=O)N1CCC[C@H]1C(=O)N[C@@H](CO)C(=O)N[C@@H](CO)C(=O)NCC(=O)N[C@@H](C)C(=O)N1CCC[C@H]1C(=O)N1CCC[C@H]1C(=O)N1CCC[C@H]1C(=O)N[C@@H](CO)C(N)=O)[C@@H](C)CC)C(=O)O` [compound 12], for which the EC50 at human glucagon receptor (Table 5, cAMP, HEK-293) is 263 pM; on human GLP-1 receptor (Table 5, cAMP, HEK-293), 4.6 pM.

`CCCCCCCCCCCCCCCC(=O)N[C@@H](CCC(=O)NCCCC[C@H](NC(=O)[C@H](CCC(N)=O)NC(=O)[C@H](CCCCN)NC(=O)[C@H](CO)NC(=O)[C@H](CC(C)C)NC(=O)[C@H](CC(=O)O)NC(=O)[C@H](CO)NC(=O)[C@@H](NC(=O)[C@H](Cc1ccccc1)NC(=O)[C@@H](NC(=O)CNC(=O)[C@H](CCC(N)=O)NC(=O)[C@@H](CO)NC(=O)[C@@H](N)Cc1c[nH]cn1)[C@@H](C)O)[C@@H](C)O)C(=O)N[C@@H](CCC(=O)O)C(=O)N[C@@H](CO)C(=O)N[C@@H](CCCNC(=N)N)C(=O)N[C@@H](CCCNC(=N)N)C(=O)N[C@@H](C)C(=O)N[C@@H](CCC(N)=O)C(=O)N[C@@H](CC(=O)O)C(=O)N[C@@H](Cc1ccccc1)C(=O)N[C@H](C(=O)N[C@@H](CCC(=O)O)C(=O)N[C@@H](Cc1c[nH]c2ccccc12)C(=O)N[C@@H](CC(C)C)C(=O)N[C@@H](CCCCN)C(=O)N[C@@H](CCCNC(=N)N)C(=O)NCC(=O)NCC(=O)N1CCC[C@H]1C(=O)N[C@@H](CO)C(=O)N[C@@H](CO)C(=O)NCC(=O)N[C@@H](C)C(=O)N1CCC[C@H]1C(=O)N1CCC[C@H]1C(=O)N1CCC[C@H]1C(=O)N[C@@H](CO)C(N)=O)[C@@H](C)CC)C(=O)O` [compound 127]: the EC50 is 9.4 pM on human glucagon receptor (Table 5, cAMP, HEK-293) and 14.7 pM at human GLP-1 receptor (Table 5, cAMP, HEK-293).

For `CC[C@H](C)[C@H](NC(=O)[C@H](Cc1ccccc1)NC(=O)[C@H](CC(=O)O)NC(=O)[C@H](CCC(N)=O)NC(=O)[C@H](C)NC(=O)[C@H](CCCNC(=N)N)NC(=O)[C@H](CCCNC(=N)N)NC(=O)[C@H](CO)NC(=O)[C@H](CC(=O)O)NC(=O)[C@H](CCSC)NC(=O)[C@H](CCC(N)=O)NC(=O)[C@H](CCCCN)NC(=O)[C@H](CO)NC(=O)[C@H](CC(C)C)NC(=O)[C@H](CC(=O)O)NC(=O)[C@H](CO)NC(=O)[C@@H](NC(=O)[C@H](Cc1ccccc1)NC(=O)[C@@H](NC(=O)CNC(=O)[C@H](CCC(N)=O)NC(=O)C(C)(C)NC(=O)[C@@H](N)Cc1c[nH]cn1)[C@@H](C)O)[C@@H](C)O)C(=O)N[C@@H](CCC(=O)O)C(=O)N[C@@H](Cc1c[nH]c2ccccc12)C(=O)N[C@@H](CC(C)C)C(=O)N[C@@H](CCCCN)C(=O)N[C@@H](CC(N)=O)C(=O)NCC(=O)NCC(=O)N1CCC[C@H]1C(=O)N[C@@H](CO)C(=O)N[C@@H](CO)C(=O)NCC(=O)N[C@@H](C)C(=O)N1CCC[C@H]1C(=O)N1CCC[C@H]1C(=O)N1CCC[C@H]1C(=O)N[C@@H](CO)C(N)=O` [compound 182], the EC50 was determined as 419 pM on human glucagon receptor (setting [1]) and 5.8 pM on human GLP-1 receptor (setting [1]).

In the case of `CCCCCCCCCCCCCCCNC(=O)[C@H](CO)NC(=O)[C@@H]1CCCN1C(=O)[C@@H]1CCCN1C(=O)[C@@H]1CCCN1C(=O)[C@H](C)NC(=O)CNC(=O)[C@H](CO)NC(=O)[C@H](CO)NC(=O)[C@@H]1CCCN1C(=O)CNC(=O)CNC(=O)[C@H](CC(N)=O)NC(=O)[C@H](CCCCN)NC(=O)[C@H](CC(C)C)NC(=O)[C@H](Cc1c[nH]c2ccccc12)NC(=O)[C@H](CCC(=O)O)NC(=O)[C@@H](NC(=O)[C@H](Cc1ccccc1)NC(=O)[C@H](CC(=O)O)NC(=O)[C@H](CCC(N)=O)NC(=O)[C@H](C)NC(=O)[C@H](CCCNC(=N)N)NC(=O)[C@H](CCCNC(=N)N)NC(=O)[C@H](CO)NC(=O)[C@H](CC(=O)O)NC(=O)[C@H](CCCCNC(=O)CC[C@H](NC(=O)CCCCCCCCCCCCCCC)C(=O)O)NC(=O)[C@H](CCC(N)=O)NC(=O)[C@H](CCCCN)NC(=O)[C@H](CO)NC(=O)[C@H](CC(C)C)NC(=O)[C@H](CC(=O)O)NC(=O)[C@H](CO)NC(=O)[C@@H](NC(=O)[C@H](Cc1ccccc1)NC(=O)[C@@H](NC(=O)CNC(=O)[C@H](CCC(N)=O)NC(=O)[C@@H](CO)NC(=O)[C@@H](N)Cc1c[nH]cn1)[C@@H](C)O)[C@@H](C)O)[C@@H](C)CC` [compound 108], the EC50 turned out to be 9 pM on human glucagon receptor (Table 5, cAMP, HEK-293) and 197 pM on human GLP-1 receptor (Table 5, cAMP, HEK-293).

Consider `CCCCCCCCCCCCCCCC(=O)N[C@@H](CCC(=O)NCCCC[C@H](NC(=O)[C@H](CCC(N)=O)NC(=O)[C@H](CCCCN)NC(=O)[C@H](CO)NC(=O)[C@H](CC(C)C)NC(=O)[C@H](CC(=O)O)NC(=O)[C@H](CO)NC(=O)[C@@H](NC(=O)[C@H](Cc1ccccc1)NC(=O)[C@@H](NC(=O)CNC(=O)[C@H](CCC(N)=O)NC(=O)[C@@H](CO)NC(=O)[C@@H](N)Cc1c[nH]cn1)[C@@H](C)O)[C@@H](C)O)C(=O)N[C@@H](CC(=O)O)C(=O)N[C@@H](CO)C(=O)N[C@@H](CCCNC(=N)N)C(=O)N[C@@H](CCCNC(=N)N)C(=O)N[C@@H](C)C(=O)N[C@@H](CCC(N)=O)C(=O)N[C@@H](CC(=O)O)C(=O)N[C@@H](Cc1ccccc1)C(=O)N[C@H](C(=O)N[C@@H](CCC(=O)O)C(=O)N[C@@H](Cc1c[nH]c2ccccc12)C(=O)N[C@@H](CC(C)C)C(=O)N[C@@H](CCCCN)C(=O)N[C@@H](CC(N)=O)C(=O)NCC(=O)NCC(=O)N1CCC[C@H]1C(=O)N[C@@H](CO)C(=O)N[C@@H](CO)C(=O)NCC(=O)N[C@@H](C)C(=O)N1CCC[C@H]1C(=O)N1CCC[C@H]1C(=O)N1CCC[C@H]1C(=O)N[C@@H](CO)C(=O)NCCC)[C@@H](C)CC)C(=O)O` [compound 10], for which the EC50 was 1.7 pM at human glucagon receptor (Table 5, cAMP, HEK-293) and 9.2 pM on human GLP-1 receptor (Table 5, cAMP, HEK-293).

On to `CCCCCCCCCCCCCCCCCC(=O)NCCCC(=O)NCCCC[C@H](NC(=O)[C@H](CCC(N)=O)NC(=O)[C@H](CCCCN)NC(=O)[C@H](CO)NC(=O)[C@H](CC(C)C)NC(=O)[C@H](CC(=O)O)NC(=O)[C@H](CO)NC(=O)[C@@H](NC(=O)[C@H](Cc1ccccc1)NC(=O)[C@@H](NC(=O)CNC(=O)[C@H](CCC(N)=O)NC(=O)[C@@H](CO)NC(=O)[C@@H](N)Cc1c[nH]cn1)[C@@H](C)O)[C@@H](C)O)C(=O)N[C@@H](CCC(=O)O)C(=O)N[C@@H](CO)C(=O)N[C@@H](CCCNC(=N)N)C(=O)N[C@@H](C)C(=O)N[C@@H](C)C(=O)N[C@@H](CCC(N)=O)C(=O)N[C@@H](CC(=O)O)C(=O)N[C@@H](Cc1ccccc1)C(=O)N[C@H](C(=O)N[C@@H](CCC(=O)O)C(=O)N[C@@H](Cc1c[nH]c2ccccc12)C(=O)N[C@@H](CC(C)C)C(=O)N[C@@H](CCCCN)C(=O)N[C@@H](C)C(=O)NCC(=O)NCC(=O)N1CCC[C@H]1C(=O)N[C@@H](CO)C(=O)N[C@@H](CO)C(=O)NCC(=O)N[C@@H](C)C(=O)N1CCC[C@H]1C(=O)N1CCC[C@H]1C(=O)N1CCC[C@H]1C(=O)N[C@@H](CO)C(N)=O)[C@@H](C)CC` [compound 53], for which the EC50 on human glucagon receptor (Table 5, cAMP, HEK-293) turned out to be 6.5 pM; on human GLP-1 receptor (Table 5, cAMP, HEK-293), 5.4 pM.
